# In PubChem BioAssay AID493248 (Broad Institute, 2011):
# Chains of the proteins cited; added tags and fusions are not shown.
# UniProt P55789, whole entry: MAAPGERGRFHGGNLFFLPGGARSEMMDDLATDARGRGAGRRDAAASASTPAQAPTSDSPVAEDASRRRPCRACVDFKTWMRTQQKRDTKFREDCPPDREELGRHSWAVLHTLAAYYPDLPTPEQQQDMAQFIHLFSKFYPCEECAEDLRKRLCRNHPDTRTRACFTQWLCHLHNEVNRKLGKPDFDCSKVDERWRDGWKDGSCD
# This is one part of the list. Measured potencies and affinities stand elsewhere. Results filed as inconclusive are left out. The rule behind the calls is not given here.
# Target: FAD-linked sulfhydryl oxidase ALR (Homo sapiens) (UniProt P55789)
# Test: ALR-catalysed DTT oxidation blockers – biochemical, H2O2 detection, luminescence, cherry-pick, dose response (AID 493248)
# Conditions: purified ALR, H2O2 HRP-luminol luminescence; at 10 µM (top of the series)
row,SMILES,"activity change, negative = inhibition [%]"
1,CN(C)c1ccc(C(=O)NCC2(N3CCCCC3)CCCCC2)cc1,3.38
2,c1ccc(CN2CCC(Nc3ccccc3)CC2)cc1,28.7
3,COc1ccc(NC2CCN(C(=O)OC(C)(C)C)CC2)cc1,-18.2
